Here are results for two substances from US20080227710A1, “Use of Conjugates of Doxorubicin with Lactosaminated Albumin” (priority 2005, published 2008).

Data set [1] in a line: DOXO concentrations in HCCs, heart and intestine of rats with DENA-induced HCCs. The settings on record: rat, in vivo. The source says: For each compound four rats were used.
For data set [2] the following is noted: rat, in vivo.
Data set [3] is described as follows: Distribution of L-[14C]HSA and L-[14C]HSA-DOXO (radioactivity count) in HCCs, heart and intestine of rats with DENA-induced HCCs. The settings on record: for Distribution, dpm/g/SA, Heart / Distribution, dpm/g/SA, Intestine / Distribution, dpm/g/SA, MD HCCs / Distribution, dpm/g/SA, PD HCCs / Distribution, dpm/g/SA, WD HCCs: rats killed 4 h after i.v. injection, mean ± standard error; for Distribution, dpm/g/SA, MD HCCs: moderately differentiated HCCs; for Distribution, dpm/g/SA, PD HCCs: poorly differentiated HCCs; for Distribution, dpm/g/SA, WD HCCs: well differentiated HCCs.

In data set [4] the target is T1, ASGP-R (Rattus norvegicus, UniProt P02706+P08290).
T1 construct: the ability of the tumors to internalize L-HSA through the ASGP-R; host or cells: DENA-induced hepatocellular carcinomas in living rats (endogenous receptor of the tumor tissue)
T1 sequence (P02706 1-284): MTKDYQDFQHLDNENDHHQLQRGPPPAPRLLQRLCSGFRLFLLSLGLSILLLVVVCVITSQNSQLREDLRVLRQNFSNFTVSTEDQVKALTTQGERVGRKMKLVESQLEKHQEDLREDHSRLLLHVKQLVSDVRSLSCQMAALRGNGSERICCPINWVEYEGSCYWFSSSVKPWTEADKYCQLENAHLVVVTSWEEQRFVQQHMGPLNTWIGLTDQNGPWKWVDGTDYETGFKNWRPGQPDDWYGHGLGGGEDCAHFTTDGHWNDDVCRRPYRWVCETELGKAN
T1 sequence (P08290 1-301): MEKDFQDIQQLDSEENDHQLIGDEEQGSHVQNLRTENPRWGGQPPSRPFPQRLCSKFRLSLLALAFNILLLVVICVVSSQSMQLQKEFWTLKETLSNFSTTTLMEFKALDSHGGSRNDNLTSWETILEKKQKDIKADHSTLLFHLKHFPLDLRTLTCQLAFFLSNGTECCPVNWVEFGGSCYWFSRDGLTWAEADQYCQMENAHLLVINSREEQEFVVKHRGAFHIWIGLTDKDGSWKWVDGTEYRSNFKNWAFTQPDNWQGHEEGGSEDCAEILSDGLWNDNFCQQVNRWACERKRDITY
The settings on record: DENA rats, cited from earlier work.

Take L-[^14C]HSA-DOXO: in data set [1], the “DOXO concentration in HCCs relative to heart” value is listed as “more than eight”; the “DOXO concentration in HCCs relative to intestine” value is reported as “five times higher”; the “DOXO concentration in all forms of HCCs relative to intestine and heart” value is listed as 5-8 fold. The “Uptake in all seven examined PD HCCs relative to heart and intestine” value in data set [2] was “at least seven times higher”. Moreover, in data set [3], the “Distribution, dpm/g/SA, Heart” value came to 9.0 ± 0.8 dpm/g/SA; the “Distribution, dpm/g/SA, Intestine” value is 9.8 ± 0.8 dpm/g/SA; the “Distribution, dpm/g/SA, MD HCCs” value was determined as 135.5 ± 19.3 dpm/g/SA; the “Distribution, dpm/g/SA, PD HCCs” value is 124.8 ± 20.2 dpm/g/SA. In addition, the “Distribution, dpm/g/SA, WD HCCs” value in data set [3] is 180.9 ± 27.8 dpm/g/SA.

With “L-[^14C]HSA: lactosaminated human albumin, a galactosyl terminating neoglycoprotein, labeled with [14C]sucrose; hepatotropic drug carrier”, in data set [4] (moderately differentiated HCCs), the “MD HCCs able to internalize L-HSA through the ASGP-R” value was 4 out of 5. Besides, the “PD HCCs with a low capacity to take up L-HSA” value in data set [4] (poorly differentiated HCCs) is reported as 2 out of 5. Further, the “WD HCCs able to internalize L-HSA through the ASGP-R” value in data set [4] (well differentiated HCCs) is on record as “all the 7”. The “Concentration in four out of six examined PD HCCs, not higher than in heart and intestine” value in data set [3] (four out of six PD HCCs, 4 h after i.v. injection 22.5 μg/g) was 9.1±0.1 dpm/g/SA. Also, in data set [3], the “Distribution, dpm/g/SA, Heart” value turned out to be 8.7 ± 0.9 dpm/g/SA; the “Distribution, dpm/g/SA, Intestine” value is given as 8.9 ± 1.5 dpm/g/SA; the “Distribution, dpm/g/SA, MD HCCs” value turned out to be 85.6 ± 4.4 dpm/g/SA; the “Distribution, dpm/g/SA, PD HCCs” value is reported as 32.6 ± 14.9 dpm/g/SA. The “Distribution, dpm/g/SA, WD HCCs” value in data set [3] is 178.3 ± 12.4 dpm/g/SA.
